The record followed here is patent US20060281897A1, “Potentialization of the activation of high molecular weight prodrugs” (priority 2003, published 2006).

For data set [1] the following is noted: 24-hour incubation at 37° C. in culture medium containing 10% fetal calf serum, 20 μM.
Data set [2] concerns peptidases secreted by LS-174T tumor cells. Description: Reactivation (hydrolysis) of prodrugs in medium conditioned by LS-174T tumor cells, HPLC. Conditions: LS-174T conditioned medium, compound 20 μM, 6 hours, 37° C.
The next data set concerns MCF-7/6 cells. The experiment in a line: Cytotoxicity test (WST-1 cell viability). Conditions: read-out: IC50 (50% inhibiting concentration), 48 hours incubation + 24 hours drug-free post-incubation.
Data set [3] relates to peptidases secreted by MCF-7/6 tumor cells. Description: Reactivation (hydrolysis) of prodrugs in medium conditioned by MCF-7/6 tumor cells, HPLC. Conditions: MCF-7/6 conditioned medium, compound 20 μM, 6 hours, 37° C.
The conditions of data set [4]: at 6 hours, whole human blood, 37° C. On the procedure: The samples were incubated at 37° C. An extraction (for extraction method with acetonitrile, see Item 7.3 below) of each product was carried out in triplicate at time 0 and after 1, 2, 4 and 6 hours of incubation.
10 μl of internal standard (prolyl-daunorubicin) and […] 150 μl of acetonitrile were added into tubes containing 50 μl of the sample to be extracted. The tubes were stirred and centrifuged for 10 minutes to 13000 g. The supernatant was diluted 4 times in a formate buffer, pH 4, centrifuged, then analyzed by HPLC (see Item 7.3 below).
At different time points, the concentrations of the conjugates and possible metabolites formed were evaluated by HPLC. FIG. 7 illustrates the variations of the concentration of products based on the incubation time.

Regarding `COc1cccc2c1C(=O)c1c(O)c3c(c(O)c1C2=O)C[C@@](O)(C(=O)CO)C[C@@H]3O[C@H]1C[C@H](NC(=O)[C@H](CC(C)C)NC(=O)[C@H](C)NC(=O)[C@H](CC(C)C)NC(=O)CCN)[C@H](O)[C@H](C)O1` [beta-ALAL-Dox, beta-alanyl-leucyl-alanyl-leucyl-doxorubicin, reference compound], the stability result in data set [1] is reported as “stable”. In addition, in data set [2], the DOX concentration reached was 0.22 µM and the L-DOX concentration reached was 5.26 µM. Also, the IC50 in the data set with MCF-7/6 cells was found to be 158 µM. In addition, in data set [3], the DOX concentration reached came to 1.45 µM and the L-DOX concentration reached was 8.14 µM. Moreover, in data set [4], the “hydrolysis: Dox formed” value was 8% and the “hydrolysis: L-Dox (Leu-Dox) formed” value was determined as 10%.
